Results: the SangsterLogP compilation

Compound `CN(C)CCCN1c2ccccc2Sc2ccc(Cl)cc21` has a logP of 5.34.
